# Reported Henry's law constant values for industrial, environmental and drug-like chemicals

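These are experimental values that the OPERA curators gathered from public databases to train and test their QSAR models. A listed value is a point estimate from one report or more. Method and conditions are not stated for these values. The measured form (salt, isomer or mixture) is not always the one drawn. Some entries may be limits or estimates that an upstream database listed as plain numbers.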

Henry's law constant (air-water partitioning) is log10 of atm·m3/mol, nominally at 25 °C.

| structure (SMILES) | name | log H (log10 atm·m3/mol) |
|---|---|---|
| CC1COc2ccccc2N1C(=O)C(Cl)Cl (configuration not stated) | Benoxacor | -7.121 |
| Cc1ccc(N=c2sccn2C)c(C)c1 | Cymiazole | -7.463 |
| CCNc1nc(NC(C)(C)C)nc(OC)n1 | Terbumeton | -8.335 |
| CCCC(=NOCC)C1=C(O)CC(C2CCCSC2)CC1=O (configuration not stated) | Cycloxydim | -9.218 |
| CCc1cccc(C)c1N(COC(C)C)C(=O)CCl | Propisochlor | -7.02 |
| CCC(C)S(=O)(=O)O (configuration not stated) | 2-Butanesulfonic acid | -4.677 |
| COCCOc1ccccc1S(=O)(=O)NC(=O)Nc1nc(OC)nc(OC)n1 | Cinosulfuron | -11.01 |
| Nc1cc(Cl)c(N)c(Cl)c1 | 2,6-Dichloro-1,4-benzenediamine | -9.827 |
| CCCC(=O)N(C)C | Butanamide, N,N-dimethyl- | -6.83 |
| C=CCCCCCCCCCC | 1-Dodecene | -0.608 |
| CCS(=O)(=O)c1cccnc1S(N)(=O)=O | 3-(Ethylsulfonyl)pyridine-2-sulfonamide | -9.696 |
| C/C=C/C=C/CCCCCCCO | (8E,10E)-8,10-Dodecadien-1-ol | -6.316 |
| CCCCCCCCCCCCCCCCCC(=O)OCCCC | Butyl octadecanoate | -1.42 |
| CC(C)OC(=O)[C@@H](C)N(C(=O)c1ccccc1)c1ccc(F)c(Cl)c1 | Flamprop M-isopropyl | -7.594 |
| Cc1cc(=O)nc(C(C)C)[nH]1 | 2-Isopropyl-6-methyl-4-pyrimidone | -7.225 |
| CC(C)C(O)(c1ccc(OC(F)(F)F)cc1)c1cncnc1 (configuration not stated) | Flurprimidol | -8.568 |
| CC(C)(SC(=O)N1CCCCC1)c1ccccc1 | Dimepiperate | -7.159 |
| CCON=C(OC(=O)c1ccccc1)c1c(OC)ccc(Cl)c1OC | Benzoximate | -7.269 |
| O=C(O)c1cccc2cc(Cl)cnc12 | 3-Chloroquinoline-8-carboxylic acid | -3.153 |

The 2 highest values of log H among the entries above:

| structure (SMILES) | name | log H (log10 atm·m3/mol) |
|---|---|---|
| C=CCCCCCCCCCC | 1-Dodecene | -0.608 |
| CCCCCCCCCCCCCCCCCC(=O)OCCCC | Butyl octadecanoate | -1.42 |

Values as listed in the OPERA 2.9 repository of K. Mansouri.